# According to US20190309272A1, “Genetically Modified Cell Lines Including a TP53 Modification and Methods of Use” (UNIVERSITY OF SOUTH CAROLINA, priority 2018, published 2019):
# Legend:
# Format in all cases: cell-based, Human
# MCF7 TP53 KO 3.4 pool = experiment: Drug screening, resazurin, TP53 KO 3.4 pool; conditions: ten-day drug treatment, 156.25 nM to 10 μM, resazurin fluorescence
# MCF7 TP53 KO 5.6 pool = experiment: Drug screening, resazurin, TP53 KO 5.6 pool
# MCF7 TP53 KO 34 B5 = experiment: Drug treatment of single cell clone KO 34 B5; conditions: ten day drug treatment; also: unit not given here
# MCF7 TP53 KO 34 E1 = experiment: Drug treatment of single cell clone KO 34 E1; conditions: ten day drug treatment
# MCF7 TP53 KO 56 A5 = experiment: Drug treatment of single cell clone KO 56 A5; conditions: ten day drug treatment
# MCF7 TP53 KO 56 A6 = experiment: Drug treatment of single cell clone KO 56 A6; conditions: ten day drug treatment
# MCF7 TP53 KO 56 A7 = experiment: Drug treatment of single cell clone KO 56 A7; conditions: ten day drug treatment; also: unit not given here
# MCF7 TP53 KO 56 E3 = experiment: Drug treatment of single cell clone KO 56 E3; conditions: ten day drug treatment
substance,measurement,setting,value
Nutlin3,TP53 KO 3.4 pool (AUC),MCF7 TP53 KO 3.4 pool,9.455
same,area under the curve (AUC),"MCF7 TP53 KO 5.6 pool; KO 56 Pool, ten day drug treatment (Table 3)",1.374
same,TP53 KO 5.6 pool (AUC),"MCF7 TP53 KO 5.6 pool; ten-day drug treatment, 156.25 nM to 10 μM, resazurin fluorescence",8.605
same,area under the curve (AUC),MCF7 TP53 KO 34 B5,1.234
same,area under the curve (AUC),MCF7 TP53 KO 34 E1,1.538
same,area under the curve (AUC),MCF7 TP53 KO 56 A5,1.595
same,area under the curve (AUC),MCF7 TP53 KO 56 A6,1.512
same,area under the curve (AUC),MCF7 TP53 KO 56 A7,1.761
same,area under the curve (AUC),MCF7 TP53 KO 56 E3,1.564
